The values below come from patent publication US7145032B2, “Therapeutic malonic acid/acetic acid C60 tri-adducts of buckminsterfullerene and methods related thereto” (priority 2002, dated 2006).

Where two headings read alike, the source gives them in different places.

Data set [1] is described as follows: Hydration of freeze dried sodium salt. Type of data set: physicochemical. To be noted: dry weight divided by expected weight for complete neutralization; freeze dried 4 days.
Data set [2] in a line: Plasma pharmacokinetics and tissue distribution in mice.
A short description of data set [3]: Thermal stability in 1:1 acetonitrile:water at 60°. Type of data set: physicochemical. From the text:
The composition was monitored by HPLC, using protocols 2 and 4 (see Table 1).

Take “e,e,e tris acetic acid C60 [Compound C3-lite]”: in data set [1], the “Hydration of Na salt” value amounted to 4.36.
In the case of “e,e,e tris malonic acid C60 [Compound C3]”, the effect on weight entry in the data set with C57B6 mice (C3-treated mice with increased lifespan) is reported as “not accompanied by a reduction in weight”. The “Weights, females” value in the data set with C57B6 mice (at 19 mos, Mean±SD, ctrl 27±1) turned out to be 29 ± 1 g. The “Weights, males” value in the data set on C57B6 mice (at 19 mos, Mean±SD, ctrl 35±4) came out at 35 ± 6 g. Also, the “plasma T1/2 (plasma half-life)” value in data set [2] is “about 8 hours”; in data set [2] (listed as Hexa), 8.2 h. Further, in data set [3], the “Thermal Stability t1/2” value came out at 60 min.
